# scFv variants of Ab-14 (light chain) against a SARS-CoV-2 spike peptide

Data: MIT Lincoln Laboratory AlphaSeq set, Engelhart et al. 2022, doi:10.1038/s41597-022-01779-4, as distributed in FLAb.

All variants were tested on one target, the spike HR2 peptide PDVDLGDISGINAS (SARS-CoV-2).

The variants keep the heavy chain, the linker and the frameworks of Ab-14 (scFv order VH, a 15-residue (Gly4Ser)3 linker, VL).
VH: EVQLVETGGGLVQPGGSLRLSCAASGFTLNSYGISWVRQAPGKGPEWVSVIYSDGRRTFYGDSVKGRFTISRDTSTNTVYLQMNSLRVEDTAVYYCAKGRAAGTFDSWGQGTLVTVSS
VL: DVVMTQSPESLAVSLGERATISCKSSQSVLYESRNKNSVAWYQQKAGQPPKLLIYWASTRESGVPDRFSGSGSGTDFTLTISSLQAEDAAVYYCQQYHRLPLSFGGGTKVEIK

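The parent was found by panning a naive human phage display library on the peptide. Variants in AAYL50 differ from the parent at up to three CDR positions; double and triple changes were sampled at random. AlphaSeq pools MATa yeast showing the antibodies with MATalpha yeast showing the peptide. After mating in shaken culture at 30 °C for 16 h, diploids were selected and their barcode pairs sequenced. A regression on co-assayed BCL2-family reference pairs converts the normalised counts of each replicate to an apparent Kd. There are three technical replicates.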

Positions count from residue 1 of the parent VL; V29N puts N in place of V. Affinities are written as log10 Kd with Kd in nM; a lower number is a better binder. The mean shown is taken over the replicates in which the pair was detected. A pair that was not seen in that replicate is written "n.d."; this usually means weak binding, but a binder can also be missed.

{"changes": "V29N/S38W", "log10 Kd, replicates": "n.d. / 2.69 / n.d.", "mean log10 Kd (nM)": "2.69", "signal with controls": "0/9"}
{"changes": "S58E/P101C", "log10 Kd, replicates": "4.69 / 3.41 / 3.97", "mean log10 Kd (nM)": "4.02", "signal with controls": "3/9 (3.55)"}
{"changes": "Y31T/A57M/Q96P", "log10 Kd, replicates": "2.24 / 1.92 / 2.02", "mean log10 Kd (nM)": "2.06", "signal with controls": "5/9 (4.53)"}
{"changes": "T59L/Q95Y/Q96G", "log10 Kd, replicates": "0.90 / 1.31 / 1.04", "mean log10 Kd (nM)": "1.08", "signal with controls": "0/9"}
{"changes": "K24G/S33W/Q95G", "log10 Kd, replicates": "2.66 / 2.26 / n.d.", "mean log10 Kd (nM)": "2.46", "signal with controls": "1/9 (4.04)"}
{"changes": "K36T/V39E", "log10 Kd, replicates": "n.d. / n.d. / n.d.", "mean log10 Kd (nM)": "n.d.", "signal with controls": "1/9 (3.52)"}
{"changes": "S26M/L30F/E61W", "log10 Kd, replicates": "2.33 / 2.41 / 2.58", "mean log10 Kd (nM)": "2.44", "signal with controls": "3/9 (4.57)"}
{"changes": "R60V/S62M/L102R", "log10 Kd, replicates": "4.16 / 4.25 / 5.15", "mean log10 Kd (nM)": "4.52", "signal with controls": "6/9 (4.50)"}
{"changes": "K24T/S25A/P101A", "log10 Kd, replicates": "3.38 / 3.56 / 3.51", "mean log10 Kd (nM)": "3.48", "signal with controls": "4/9 (4.19)"}
{"changes": "T59E/H98N/P101K", "log10 Kd, replicates": "n.d. / n.d. / n.d.", "mean log10 Kd (nM)": "n.d.", "signal with controls": "0/9"}
{"changes": "K36Y/T59M/L100P", "log10 Kd, replicates": "5.91 / 5.34 / n.d.", "mean log10 Kd (nM)": "5.63", "signal with controls": "3/9 (3.74)"}
{"changes": "S26L/T59M/S103Q", "log10 Kd, replicates": "1.19 / 1.20 / 0.80", "mean log10 Kd (nM)": "1.06", "signal with controls": "0/9"}
{"changes": "S33I/R34L/W56E", "log10 Kd, replicates": "0.09 / 0.39 / 0.24", "mean log10 Kd (nM)": "0.24", "signal with controls": "2/9 (3.65)"}
{"changes": "S26I/S62W/Q96K", "log10 Kd, replicates": "6.36 / 5.50 / n.d.", "mean log10 Kd (nM)": "5.93", "signal with controls": "3/9 (4.38)"}
{"changes": "L30D/R34S/L100M", "log10 Kd, replicates": "0.59 / 0.65 / 0.60", "mean log10 Kd (nM)": "0.61", "signal with controls": "1/9 (3.83)"}
{"changes": "S28M/S58M/P101T", "log10 Kd, replicates": "n.d. / 3.53 / 4.08", "mean log10 Kd (nM)": "3.80", "signal with controls": "4/9 (3.80)"}
{"changes": "T59V/P101S/L102T", "log10 Kd, replicates": "1.19 / 1.38 / 1.37", "mean log10 Kd (nM)": "1.31", "signal with controls": "5/9 (4.68)"}
{"changes": "E32V/K36L/Q96V", "log10 Kd, replicates": "n.d. / n.d. / n.d.", "mean log10 Kd (nM)": "n.d.", "signal with controls": "1/9 (3.79)"}
{"changes": "K24W/Q27N/R60I", "log10 Kd, replicates": "n.d. / n.d. / n.d.", "mean log10 Kd (nM)": "n.d.", "signal with controls": "1/9 (5.35)"}
{"changes": "R34V/N37Q/S62K", "log10 Kd, replicates": "0.58 / 1.05 / 0.65", "mean log10 Kd (nM)": "0.76", "signal with controls": "0/9"}
{"changes": "S26T/Q27E/S62T", "log10 Kd, replicates": "0.62 / 0.82 / 0.80", "mean log10 Kd (nM)": "0.75", "signal with controls": "0/9"}

The opening 2 entries, copied out:

| changes | log10 Kd, replicates | mean log10 Kd (nM) | signal with controls |
|---|---|---|---|
| V29N/S38W | n.d. / 2.69 / n.d. | 2.69 | 0/9 |
| S58E/P101C | 4.69 / 3.41 / 3.97 | 4.02 | 3/9 (3.55) |

In this assay the parent's reference entry averaged 0.65; its copy inside this library read 1.68. Empty control strains, which show no peptide, gave a signal in 18% of pairings with library AAYL50; the median was 4.19 and 95% of these signals were weaker than 2.99. No background was subtracted. The control count says in how many pairings with the empty strains this scFv gave a signal, with their mean in brackets.